Data on 1 molecule can be found in patent US20050163773A1, “Methods and pharmaceutical compositions for dopaminergic modulation of t-cell adhesion and activity” (priority 2001, published 2005).

This experiment concerns Jurkat T-cell leukemia cells.

Take `NCCc1ccc(O)c(O)c1` [Dopamine]: the “cellular death in Jurkat T-cell leukemia cells” value is “induces cellular death”.
